# Earlier results as cited in article PMC11361989, “A simple HPLC–MS/MS method for the determination of polymyxin B in human plasma and its application in the pharmacokinetic study in elderly patients infected with multidrug-resistant Gram-negative bacteria” (Frontiers in Pharmacology, 2024).
# Conditions: ref Matar and Al-Refai, 2020; cited from earlier work
substance,measurement,value
colistin B,Stability when stored at 25°C for 6 h,cannot be stable
